# Values quoted from earlier work as cited in publication PMC5249144, “T Cell Subset and Stimulation Strength-Dependent Modulation of T Cell Activation by Kv1.3 Blockers” (PLoS ONE, 2017).
# Test system: allergic airway inflammation
# Settings: ref [40]; cited from earlier work
# Source text: In order to better understand the therapeutic potential of Kv1.3 blockers therefore, we investigated the effects of Kv1.3 blockers on T cells activated by disease relevant antigens. […] The ...
substance,measurement,value
"CTLA4-Ig: CD28 blocker, FDA-approved T cell inhibitor which blocks co-stimulatory CD28 signals","efficacy in allergic airway inflammation, in words",efficacious in the treatment of allergic airway inflammation
